# Measured values published in patent US11118204B2, “Switchable ionic liquids for biomass pretreatment and enzymatic hydrolysis” (National Technology & Engineering Solutions of Sandia, LLC, priority 2014, dated 2021).
# Where “and” joins values, the source holds several entries; their conditions need not be identical. Identical values can stand only once.
# Key:
# [1] = tested on: E. coli DH10B; experiment: E. coli growth in ionic liquids
# [2] = ionic liquid solution
# [3] = tested on: E. coli BW25113; experiment: Isopentenol production by fermentation in presence of ionic liquid or hydrolysate
# [4] = tested on: E. coli DH10B; conditions: pH of ~5
# [5] = tested on: S. cerevisiae; conditions: pH of ~5
Substance,concentration up to which cultures reached the same maximum OD [1],concentration up to which growth was observed [1],solution pH [2],concentration in fermentation media at which significant reduction of isopentenol yields occurred [3] [%],concentration at which E. coli growth was inhibited [4],concentration up to which S. cerevisiae maintained its maximum growth rate [5]
choline glutamate [[Ch][Glu]],up to 15%,up to 20%,5-7 and ~7,~12,–,–
Choline succinate [[Ch][Sc]],–,–,4-6,–,above 3%,up to 10%
